One compound from patent US20150292030A1, “METHODS OF CHARACTERIZING AND TREATING MOLECULAR SUBSET OF MUSCLE-INVASIVE BLADDER CANCER” (BOARD OF REGENTS, THE UNIVERSITY OF TEXAS SYSTEM, priority 2012, published 2015) can be followed below.

The assay deals with UC5 and Scaber cells. Description: Effects of gefitinib on EGFR and STAT3 phosphorylation and p63 expression. It is filed as cell-based, human.

With `COc1cc2ncnc(Nc3ccc(F)c(Cl)c3)c2cc1OCCCN1CCOCC1` [gefitinib], the STAT3 phosphorylation result is “inhibition”; the “expression of p63, P-cadherin, and cytokeratins 5 and 14” value was “downregulation”.
